Target: T1, Dimer of Gag-Pol polyprotein [489-587] (Human immunodeficiency virus 1, UniProt P12497)
T1 construct: 489-587
Experiment: Protease Inhibition Assay
Settings: pH 5.5; 30 °C
Experimental: Sensitivity of HIV-1 protease activity to protease inhibitors was determined by a peptide substrate cleavage assay. Protease products were analyzed on a reverse-phase high-pressure liquid chromatograph.

`CC(C)(C)NC(=O)C1C[C@@H]2CCCC[C@@H]2CN1C[C@@H](O)[C@H](Cc1ccccc1)NC(=O)O[C@@H]1CCOC1` (stereo partly drawn) [(3R)-oxolan-3-yl N-[(2S,3R)-4-[(4aS,8aS)-3-(tert-butylcarbamoyl)-decahydroisoquinolin-2-yl]-3-hydroxy-1-phenylbutan-2-yl]carbamate] was tested, and the IC50 was 694 nM.

Reference: BindingDB's records for doi:10.1021/jm00054a015 (Merck Research Laboratories, 1993)
